Our source for the AC50 and Ki values is patent US20240067660A1, “MACROCYCLIC SPIROCYCLE DERIVATIVES AS MCL-1 INHIBITORS” (Janssen Pharmaceutica NV, priority 2019, published 2024).

Sequences of proteins named here, by UniProt entry; tags and fusion partners are left off.
UniProt Q07820, whole entry: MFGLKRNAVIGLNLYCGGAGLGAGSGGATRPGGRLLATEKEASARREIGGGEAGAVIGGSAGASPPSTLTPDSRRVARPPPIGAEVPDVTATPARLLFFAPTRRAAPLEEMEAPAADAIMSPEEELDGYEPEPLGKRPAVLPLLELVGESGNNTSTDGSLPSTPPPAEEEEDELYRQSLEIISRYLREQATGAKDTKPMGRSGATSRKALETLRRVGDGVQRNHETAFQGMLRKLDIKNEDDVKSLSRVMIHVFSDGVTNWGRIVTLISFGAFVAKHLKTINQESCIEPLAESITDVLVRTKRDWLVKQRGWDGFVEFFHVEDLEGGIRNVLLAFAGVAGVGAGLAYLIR

Assay [1] relates to MOLP-8 human multiple myeloma cell line. Briefly: Caspase-Glo 3/7 assay in MOLP-8 cells. The settings on record: read-out: MOLP8 AC50; Caspase-Glo 3/7, 2 hours incubation; averaged over all runs on all batches. An excerpt:
MCL-1 is a regulator of apoptosis and is highly over-expressed in tumor cells that escape cell death. The assay evaluates the cellular potency of small-molecule compounds targeting regulators of the apoptosis pathway, primarily MCL-1, Bfl-1, Bcl-2, and other proteins of the Bcl-2 family. Protein-protein inhibitors disrupting the interaction of anti-apoptotic regulators with BH3-domain proteins initiate apoptosis.
The Caspase-Glo® 3/7 Assay is a luminescent assay that measures caspase-3 and -7 activities in purified enzyme preparations or cultures of adherent or suspension cells. The assay provides a proluminescent caspase-3/7 substrate, which contains the tetrapeptide sequence DEVD. This substrate is cleaved to release aminoluciferin, a substrate of luciferase used in the production of light. Addition of the single Caspase-Glo® 3/7 Reagent in an “add-mix-measure” format results in cell lysis, followed by caspase cleavage of the substrate and generation of a “glow-type” luminescent signal. […]
Cell cultures were maintained between 0.2 and 2.0×10^6 cells/mL. […] The cells were counted and diluted as needed. […]
Compounds were delivered in assay-ready plates (Proxiplate) and stored at −20° C. […] The plates were then sealed and measured after 30 minutes.
The activity of a test compound was calculated as percent change in apoptosis induction as follows: […]

The target of assay [2] is Myeloid Cell Leukemia 1(Mcl-1) (Homo sapiens (Human), UniProt Q07820). Briefly: Terbium labeled Mcl-1 HTRF binding assay with Cy5-labeled BIM BH3 peptide. Particulars: read-out: HTRF Ki; obtained after recalibration of the equipment; averaged values over several runs. On the procedure:
Terbium labeled Myeloid Cell Leukemia 1(Mcl-1) homogeneous time-resolved fluorescence (HTRF) binding assay utilizing the BIM BH3 peptide (H2N-(C/Cy5Mal) WIAQELRRIGDEFN-OH) as the binding partner for Mcl-1.
This assay evaluated inhibition of the BH3 domain: Mcl-1 interaction by measuring the displacement of Cy5-labeled BIM BH3 peptide (H2N—(C/Cy5Mal) WIAQELRRIGDEFN-OH) in the HTRF assay format.
The following assay and stock buffers were prepared for use in the assay: (a) Stock buffer: 10 mM Tris-HCl, pH=7.5+150 mM NaCl, filtered, sterilized, and stored at 4° C.; and (b) 1× assay buffer, where the following ingredients were added fresh to stock buffer: 2 mM dithiothreitol (DTT), 0.0025% Tween-20, 0.1 mg/mL bovine serum albumin (BSA). […]
The TR-FRET signal was read on an BMG PHERAStar FSX MicroPlate Reader at room temperature using the HTRF optic module (HTRF: excitation: 337 nm, light source: laser, emission A: 665 nm, emission B: 620 nm, integration start: 60 μs, integration time: […]).
The BMG PHERAStar FSX MicroPlate Reader was used to measure fluorescence intensity at two emission wavelengths—665 nm and 620 nm—and report relative fluorescence units (RFU) for both emissions, as well as a ratio of the emissions (665 nm/620 nm)*10,000. […]
(In TR-FRET formats the signal depends on donor and acceptor labels being close together.)

pKi: −log10 of the molar value.

The AC50 is the concentration giving half of the maximal activity seen. Usually pKi stands for the negative decadic logarithm of the Ki, by convention in mol/L. Take `C[C@@H]1[C@@H](C)C/C=C(\F)[C@H](CO)N2CCC[C@H]2CN2C[C@@]3(CCCc4cc(Cl)ccc43)COc3ccc(cc32)C(=O)NS1(=O)=O`: the AC50 in assay [1] is 786 nM. The pKi in assay [2] is 9.41.
